Here are results for one substance from patent US20130122525A1.

As usually defined, the koff is the first-order rate constant of dissociation. Read a high koff as fast dissociation.

In this test the target is streptavidin (Invitrogen), bound to a PEG/biotin-PEG passivated surface (UniProt P22629). Description: dissociation of surface-immobilized, biotinylated LeuT from the streptavidin-coated imaging plane (TIRF smFRET imaging; data not shown).

Substance “Cy3/Cy5-labeled LeuT (H7C/R86C) with a 15-amino-acid C-terminal biotinylation domain, biotinylated (other; other documents disagree on this pair)” displayed a koff below 6.94e-05 s⁻¹.
